According to publication PMC8958505, “Discovery of Potential Neuroprotective Agents against Paclitaxel-Induced Peripheral Neuropathy” (Journal of Medicinal Chemistry, 2022):
pIC50: −log10 of the molar value. Counter-ions that a name gives are not always drawn. Like-named read-outs stand apart in the source and are kept apart here.

Tests used:
[1] = system: Glutamate, NMDA, Phencyclidine; test: LeadProfilingScreen: Glutamate, NMDA, Phencyclidine; type: binding, rat; conditions: 10 μM
[2] = system: macrophages and microglia in DRG tissues; test: Immunofluorescence of macrophages and microglia in DRG tissues; type: in vivo, mouse; conditions: day 7
Procedure: DRG tissues were isolated on day 7 after first paclitaxel injection. The tissues were fixed in 4% paraformaldehyde at 4 °C overnight and subsequently placed in 30% sucrose for sample dehydration. During the frozen section procedure, the tissues were embedded in OCT (EMS; #14120) and sectioned into 20 μm thick slices. The DRG tissue sections were permeabilized with 0.1% Triton X-100 in PBS for 1 h and then blocked with CAS-Block solution (#008120; Thermo Fisher, USA) at room temperature for another 1 h. DRG tissue sections were stained with primary antibody against CD68 (1:100 dilution; Novus), NOS2 (1:100 dilution; Santa Cruz), Arginase-1 (1:100 dilution; Santa Cruz), and Iba-1 (1:100 dilution; Santa Cruz) at 4 °C overnight. Afterward, the samples were washed with PBS and stained with secondary antibodies (Alexa-488, 594, 1:200 dilution; Invitrogen) and Hoechst 33342 (4 μg/mL; Invitrogen) at room temperature for 1 h. A 60× objective by an Olympus FV3000 confocal microscope was used to acquire immunofluorescence images.

Potassium Channel [KATP] = Potassium Channel [KATP] (Cricetus cricetus, UniProt Q09427); test: LeadProfilingScreen: Potassium Channel [KATP]; type: binding, hamster; conditions: read-out: Inhibition (%), Potassium Channel [KATP]
Description: (§1) LeadProfilingScreen (Total # of Assays: 67)
(§2) To evaluate, in LeadProfilingScreen, the activity of test compound CN168 (Panlabs # 1251879). […]
(§3) Summary of Significant Results
(§4) Biochemical assay results are presented as the percent inhibition of specific binding or activity throughout the report.
(§5) All other results are expressed in terms of that assay's quantitation method.
(§6) • For primary assays, only the lowest concentration with a significant response judged by the assays' criteria, is […]
(§7) • Where applicable, either the secondary assay results with the lowest dose/concentration meeting the significance […]
(§8) • Unless otherwise requested, primary screening in duplicate with quantitative data (e.g., IC50 ± SEM, Ki ± SEM and nH) are shown where applicable for individual requested assays. In screening packages, primary screening in duplicate with semi-quantitative data (e.g., estimated IC50, Ki and nH) are shown where applicable (concentration range of 4 log units); available secondary functional assays are carried out ([…]) and MEC or MIC determined only if active in primary assays >50% at 1 log unit below initial test concentration. […]

[3] = system: GABAA, Flunitrazepam, Central; test: LeadProfilingScreen: GABAA, Flunitrazepam, Central; type: binding, rat; conditions: 10 μM
CYP 2D6 = target: T1, CYP 2D6 (Homo sapiens, UniProt P10635); test: Cytochrome P450 testing, CYP 2D6; type: in vitro ADME; conditions: dextromethorphan O-demethylation; read-out: Concentration of inhibition (IC50), CYP 2D6
T1 construct: host or cells: baculovirus-infected insect cells (supersomes)
Description: Cytochrome P450 testing of CN016
The effects of CN016 on the activity of six specific human liver cytochrome P450 isozymes (CYP 1A2, 2C9, 2C19, 2D6, 2E1, 3A4) expressed in baculovirus-infected insect cell supersomes were studied. The reactions used to measure the activity of these enzymes were phenacetin O-deethylation (1A2), diclofenac 4-hydroxylation (2C9), mephenytoin 4-hydroxylation (2C19), dextromethorphan O-demethylation (2D6), chlorzoxazone 6-hydroxylation (2E1) and testosterone 6-hydroxylation (3A4).
Furafylline, sulfaphenazole, tranylcypromine, quinidine, diethyldithiocarbamate and azamulin were used as reference inhibitors of these enzymes. Incubation mixtures containing no CN016 or reference inhibitors were used as controls. The tested result […]
Table S4. Result of Cytochrome P450 testing of CN016

[4] = target: Nicotinic Acetylcholine α1, Bungarotoxin (Homo sapiens, UniProt P02708+P07510+Q07001); type: binding; conditions: 10 μM
ICR mice = test: Acute single-dose toxicity study; type: in vivo; conditions: for survival / survival rate: saline
Procedure: An acute single-dose toxicity study was conducted in male ICR mice. 7-week-old ICR male mice were intravenous bolus administered with CN016 dissolved in 0.9% sodium chloride solution by using dose escalation procedure to approach the toxicity of CN016. The treatment groups included 50, 100, 300, and 500 mg/kg dose levels and three to six mice for each group. The injection volume was calculated based on the individual body weight. […] Animal body weight was measured once daily during the 14 day observation period of the study. All animals were euthanized with 100% CO2 at the end of the study.

Opiate δ1 (OP1, DOP) = Opiate δ1 (OP1, DOP) (Homo sapiens, UniProt P41143); test: LeadProfilingScreen: Opiate δ1 (OP1, DOP); type: binding
Histamine H1 = Histamine H1 (Homo sapiens, UniProt P35367); test: LeadProfilingScreen: Histamine H1; type: binding
Adrenergic α1D = Adrenergic α1D (Homo sapiens, UniProt P25100); test: LeadProfilingScreen: Adrenergic α1D; type: binding
Neuropeptide Y Y1 = Neuropeptide Y Y1 (Homo sapiens, UniProt P25929); test: LeadProfilingScreen: Neuropeptide Y Y1; type: binding
Muscarinic M3 = Muscarinic M3 (Homo sapiens, UniProt P20309); test: LeadProfilingScreen: Muscarinic M3; type: binding
Bradykinin B1 = Bradykinin B1 (Homo sapiens, UniProt P46663); test: LeadProfilingScreen: Bradykinin B1; type: binding
[5] = target: Serotonin (5-Hydroxytryptamine) 5-HT2B (Homo sapiens, UniProt P41595); test: LeadProfilingScreen: Serotonin 5-HT2B; type: binding; conditions: read-out: Inhibition (%), Serotonin (5-Hydroxytryptamine) 5-HT2B
Description: as §1, §2, §3, §4, §5, §6, §7, §8

[6] = target: Leukotriene, Cysteinyl CysLT1 (Homo sapiens, UniProt Q9Y271); test: LeadProfilingScreen: Leukotriene, Cysteinyl CysLT1; type: binding
Adenosine A3 = Adenosine A3 (Homo sapiens, UniProt P0DMS8); test: LeadProfilingScreen: Adenosine A3; type: binding

O=P(O)(O)CCN1CCC(Nc2cc(N3CCOCC3)nc(NCc3cn(CCCO)nn3)n2)CC1 [CN016, {2-[4-(2-{[1-(3-Hydroxy-propyl)-1H-[1,2,3]triazol-4-ylmethyl]-amino}-6-morpholin-4-yl-pyrimidin-4-ylamino)-piperidin-1-yl]-ethyl}-phosphonic Acid Hydrobromide Salt]
Inhibition (%), Glutamate, NMDA, Phencyclidine [1]: -4%
infiltration of M1 and M2 macrophages in DRG tissues ([2]; CN016 10 or 20 mg/kg before paclitaxel): significantly diminished
paclitaxel-induced M1 and M2 macrophages recruitment ([2]; CN016 low dosage): failed to inhibit
paclitaxel-induced activation of M1 microglia in DRG neurons [2]: dramatically reduce
inhibition at 10 µM (Potassium Channel [KATP]): -1%
Inhibition (%), GABAA, Flunitrazepam, Central [3]: -5%
pIC50 (CYP 2D6): < 4.00
Inhibition (%), Nicotinic Acetylcholine α1, Bungarotoxin [4]: 7%
Inhibition (%), Nicotinic Acetylcholine α1, Bungarotoxin ([4]; listed as CN168, 10 µM): -6%
survival (ICR mice; 50 mg/kg IV): 3/3
survival rate (ICR mice; 50 mg/kg IV): 100%
survival (ICR mice; 100 mg/kg IV): 6/6
survival rate (ICR mice; 100 mg/kg IV): 100%
survival (ICR mice; 300 mg/kg IV): 3/3
survival rate (ICR mice; 300 mg/kg IV): 100%
survival (ICR mice; 500 mg/kg IV): 3/3
survival rate (ICR mice; 500 mg/kg IV): 100%
maximum tolerance dose (MTD) (ICR mice; intravenous, ICR mice): > 500 mg/kg
inhibition at 10 µM (Opiate δ1 (OP1, DOP)): 6%
inhibition at 10 µM (Histamine H1): 19%
inhibition at 10 µM (Adrenergic α1D): -6%
inhibition at 10 µM (Neuropeptide Y Y1): -4%
inhibition at 10 µM (Muscarinic M3): 0%
inhibition at 10 µM (Bradykinin B1): -10%
inhibition at 10 µM [5]: 10%
inhibition at 10 µM [6]: -8%
inhibition at 10 µM (Adenosine A3): 0%
